Data from paper PMC8777613, “Effect of Hydroxyl Groups Esterification with Fatty Acids on the Cytotoxicity and Antioxidant Activity of Flavones” (Molecules, 2022).

Experiments:
[1] = test system: human prostate cancer cells (PC3); experiment: MTT dye reduction viability test, PC3; type: cell-based
Method: (§1) The cytotoxic effect of 6-hydroxy-flavanone and 7-hydroxy-flavone and their conjugates was evaluated by MTT dye reduction assay, measuring mitochondrial respiratory functions. We have chosen two types of cell culture lines: human prostate cancer cells (PC3) and normal human immortal keratinocyte cells (HaCaT) (Table 1).
(§2) Human prostate cancer cells (PC3) and human immortal keratinocyte cell line from adult human skin (HaCaT) were obtained from American Type Culture Collection (Teddington, UK) and cultured according to its instructions RPMI 1640 (L0490) medium or DMEM (L0102) medium, respectively, in a 95% air and 5% CO2 humidified incubator at 37 °C. Both media (Biowest) were supplemented with 10% fetal bovine serum (FBS), 100 U/mL penicillin and 100 μg/mL streptomycin. 10 mM stock solutions of tested compounds in DMSO were prepared.
(§3) To assess the cells growth inhibition, the MTT dye reduction test was preformed based on the method described by Präbst et al.. Both PC3 and HaCaT cells (1 × 10^3/well) were seeded into 96-well plates and incubated for 24 h to attach to the bottom of the well in appropriate medium (200 μL) and treated with tested compounds (0–100 μM). The medium with compounds was removed after 72 h and MTT (0.5 mg/mL) in fresh growth medium without serum was added to each well. The plates were incubated in dark for 4 h at 37 °C. Then, the solution in each well was removed and refilled with 100 μL DMSO: isopropanol (1:1) to dissolve formazon crystals. The optical density was measured with an UVM 340 (ASYS Hitech GmbH, Austria) microplate reader at 570 nm. Replicates of three wells for each dosage, including vehicle control, were analyzed for each experiment. The experiments were conducted in triplicate. The results are expressed as IC50 values. The value of IC50 was estimated using CompuSyn version 1.0.

[2] = test system: human immortal keratinocyte cells (HaCaT); experiment: MTT dye reduction viability test, HaCaT; type: cell-based
Method: as §1, §2, §3

7-Hydroxy-Flavanone [Compound 7, reference compound]
Cells viability ([1]; 10 µM): 79.7%
Cells viability ([1]; 20 µM): 83.9%
Cells viability ([1]; 40 µM): 79.3%
Cells viability ([1]; 60 µM): 68.9%
Cells viability ([1]; 80 µM): 76.6%
Cells viability ([1]; 100 µM): 70.9%
Cells viability ([2]; 10 µM): 97.17%
Cells viability ([2]; 20 µM): 102%
Cells viability ([2]; 40 µM): 96.70%
Cells viability ([2]; 60 µM): 84.03%
Cells viability ([2]; 80 µM): 93.41%
Cells viability ([2]; 100 µM): 86.46%
